CycPeptMPDB entries from one study

Source: CycPeptMPDB (Li et al. 2023), which took these values from Townsend et al. 2020, doi:10.26434/chemrxiv.13335941.v1.

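Conditions beyond the assay type are not listed; see the original paper. The list need not hold all peptides of the study. Peptides that the database sets to -10, its floor, are left out.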

PAMPA measures passive passage through an artificial lipid membrane.
P is given in units of 10^-6 cm/s (from log10 values with two decimals); larger means faster passage.

| PAMPA (10^-6 cm/s) | compound |
|---|---|
| 6.9 | CC(C)C[C@@H]1C(=O)N[C@H](CC(C)C)C(=O)N2CCC[C@H]2C(=O)N(Cc2ccccc2)CC(=O)N[C@@H](Cc2ccccc2)C(=O)N2CCC[C@@H]2C(=O)N(C)[C@H](C)C(=O)N1C |
| 1.6 | CC(C)C[C@@H]1NC(=O)[C@@H]2CCCN2C(=O)C[C@H](Cc2ccccc2)NC(=O)[C@@H](CC(C)C)NC(=O)[C@H](C)N(C)C(=O)[C@H](Cc2ccccc2)NC1=O |
| 0.54 | CC(C)C[C@@H]1NC(=O)C[C@H](Cc2ccccc2)NC(=O)[C@H]2CCCN2C(=O)[C@H](Cc2ccccc2)NC(=O)CN(Cc2ccccc2)C(=O)[C@@H]2CCCN2C(=O)[C@H](CC(C)C)NC1=O |
| 1.2 | CC(C)C[C@@H]1NC(=O)C[C@H](Cc2ccccc2)NC(=O)[C@H]2CCCN2C(=O)[C@H](Cc2ccccc2)NC(=O)CN(Cc2ccccc2)C(=O)[C@H]2CCCN2C(=O)[C@H](CC(C)C)N(C)C1=O |
| 15 | CCCN1CC(=O)N(C)[C@H](CC(C)C)C(=O)N[C@H](CC(C)C)C(=O)N2CCC[C@H]2C(=O)N(C)[C@H](CC(C)C)C(=O)N[C@@H](Cc2ccccc2)C1=O |
| 2.7 | CC(C)C[C@@H]1NC(=O)C[C@H](Cc2ccccc2)NC(=O)[C@H](Cc2ccccc2)NC(=O)CN(Cc2ccccc2)C(=O)[C@@H]2CCCN2C(=O)[C@@H](CC(C)C)NC1=O |
| 4.3 | CC(C)C[C@@H]1C(=O)N2CCC[C@H]2C(=O)N(Cc2ccccc2)CC(=O)N[C@@H](Cc2ccccc2)C(=O)N[C@H](C)C(=O)N(C)[C@H](CC(C)C)C(=O)N1C |
| 2.7 | CC(C)C[C@@H]1NC(=O)[C@H]2CCCN2C(=O)C[C@H](Cc2ccccc2)NC(=O)[C@@H](CC(C)C)NC(=O)C[C@H](Cc2ccccc2)NC(=O)[C@@H]2CCCN2C(=O)[C@H](Cc2ccccc2)NC1=O |
| 0.55 | CC(C)C[C@@H]1NC(=O)[C@H](C)NC(=O)[C@H](Cc2ccccc2)NC(=O)[C@@H](CC(C)C)N(C)C(=O)[C@H]2CCCN2C(=O)[C@@H](CC(C)C)N(C)C1=O |
| 4.6 | CCCN1CC(=O)N(C)[C@H](CC(C)C)C(=O)N(Cc2ccccc2)CC(=O)N2CCC[C@@H]2C(=O)N(C)[C@H](CC(C)C)C(=O)N[C@@H](Cc2ccccc2)C1=O |
| 4.8 | CC(C)C[C@@H]1C(=O)N(C)[C@@H](CC(C)C)C(=O)N2CCC[C@H]2C(=O)N(C)[C@H](CC(C)C)C(=O)N[C@@H](Cc2ccccc2)C(=O)N[C@H](C)C(=O)N1C |
| 3.6 | CC(C)C[C@@H]1C(=O)N[C@H](CC(C)C)C(=O)N2CCC[C@H]2C(=O)N(C)[C@@H](CC(C)C)C(=O)N[C@@H](Cc2ccccc2)C(=O)N2CCC[C@@H]2C(=O)N[C@@H](Cc2ccccc2)CC(=O)N1C |
| 1.1 | CC(C)C[C@@H]1NC(=O)[C@@H](C)N(C)C(=O)[C@H]2CCCN2C(=O)[C@H](Cc2ccccc2)NC(=O)[C@@H](CC(C)C)N(C)C(=O)[C@H]2CCCN2C(=O)[C@H](CC(C)C)NC1=O |
| 1.5 | CC(C)C[C@@H]1NC(=O)CN(Cc2ccccc2)C(=O)[C@H](C)N(C)C(=O)[C@@H]2CCCN2C(=O)[C@H](Cc2ccccc2)NC(=O)CN(Cc2ccccc2)C(=O)[C@@H]2CCCN2C1=O |
| 6.9 | CC(C)C[C@@H]1C(=O)N[C@@H](Cc2ccccc2)C(=O)N[C@@H](Cc2ccccc2)CC(=O)N(C)[C@@H](CC(C)C)C(=O)N[C@H](CC(C)C)C(=O)N2CCC[C@H]2C(=O)N1C |
| 1.8 | CC(C)C[C@@H]1NC(=O)[C@H](C)NC(=O)[C@@H]2CCCN2C(=O)[C@H](Cc2ccccc2)NC(=O)[C@@H](CC(C)C)N(C)C(=O)[C@@H]2CCCN2C(=O)[C@@H](CC(C)C)N(C)C1=O |
| 3.5 | CC(C)C[C@@H]1C(=O)N2CCC[C@H]2C(=O)N(C)[C@H](CC(C)C)C(=O)N[C@@H](Cc2ccccc2)C(=O)N2CCC[C@H]2C(=O)N(C)[C@H](C)C(=O)N(C)[C@@H](CC(C)C)C(=O)N1C |
| 2.4 | CC(C)C[C@@H]1NC(=O)[C@@H](C)N(C)C(=O)[C@@H]2CCCN2C(=O)[C@H](Cc2ccccc2)NC(=O)[C@H](CC(C)C)N(C)C(=O)[C@H]2CCCN2C(=O)[C@@H](CC(C)C)N(C)C1=O |
| 0.47 | CC(C)C[C@@H]1NC(=O)[C@@H](C)NC(=O)[C@H](Cc2ccccc2)NC(=O)[C@@H](CC(C)C)N(C)C(=O)[C@@H]2CCCN2C(=O)[C@H](CC(C)C)NC1=O |
| 0.55 | CC(C)C[C@@H]1C(=O)N(Cc2ccccc2)CC(=O)N2CCC[C@@H]2C(=O)N(C)[C@H](CC(C)C)C(=O)N[C@@H](Cc2ccccc2)C(=O)N2CCC[C@@H]2C(=O)N(C)[C@H](C)C(=O)N1C |
| 8.5 | CC(C)C[C@@H]1NC(=O)[C@@H](C)N(C)C(=O)[C@H](Cc2ccccc2)NC(=O)[C@H](CC(C)C)N(C)C(=O)[C@@H]2CCCN2C(=O)CN(Cc2ccccc2)C1=O |